# Reference: PubChem BioAssay AID845 (Columbia University Molecular Screening Center, 2007)
# This is a selection; strong and weak results do not stand in their true shares. The source made the active and inactive calls.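 How the source made its calls: active means cell count reduction more than 3 SD above the screen-wide mean (cut at about 70% in these data); inactive means the rest.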
# Assay: cytotoxicity in IL-1B stimulated HUVEC, primary screen, cytotoxicity control for IL-1B NFkB translocation project, imaging, Hoechst nuclear count, IL-1B stimulus (AID 845);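 further: normalized per plate to untreated control cells as the no-loss baseline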
# Settings: HUVEC cell count loss, at 2 µM, active compounds read high
row,Compound,cell count reduction
1,CP(=O)(Nc1ccccc1)Oc1ccc(F)cc1 (stereo not drawn),inactive: 24%
2,CCN(CC)CCCOC(=O)C(O)(c1ccccc1)C1CCCCC1 (stereo not drawn),inactive: 4.6%
3,CP(=O)(Nc1ccccc1F)Oc1ccccc1 (stereo not drawn),inactive: 0%
4,CCOP(C)(=S)SCC(=O)NC(C)(CC)C(=O)O (stereo not drawn),inactive: -56.6%
5,CP(=O)(Nc1ccc2c(c1)OCCO2)Oc1ccccc1 (stereo not drawn),inactive: -0.8%
6,CN(C)CCOC(=O)C(O)(c1ccccc1)C1CCCCC1 (stereo not drawn),inactive: 2.4%
7,CP(=O)(OC12CC3CC(CC(C3)C1)C2)OC12CC3CC(CC(C3)C1)C2,inactive: 14.4%
8,COc1ccccc1OP(C)(=O)Nc1c(C)n(C)n(-c2ccccc2)c1=O (stereo not drawn),inactive: -21.8%
9,CP(=O)(Oc1ccccc1)N1CCOC1=O (stereo not drawn),inactive: 3.4%
10,CCN(CC)CC(O)COC(=O)C(O)(c1ccccc1)C1CCCCC1 (stereo not drawn),inactive: -30.1%
11,CC(C)(C)c1ccc(OP(C)(=O)O)cc1,inactive: 2.3%
12,CP(=O)(Nc1ccc(Cl)cc1)Oc1ccc(F)cc1 (stereo not drawn),inactive: -8.5%
13,COc1ccc(OP(C)(=O)Nc2ccccn2)cc1 (stereo not drawn),inactive: -15.8%
14,CN(C)CCOC(=O)C(O)(c1ccccc1)C1CCCC1 (stereo not drawn),inactive: -11.5%
15,COc1ccccc1OP(C)(=O)Nc1ccc(C)cc1C (stereo not drawn),inactive: -2.1%
16,CP(=O)(Nc1ccccn1)Oc1ccccc1 (stereo not drawn),inactive: -9.2%
17,CCc1ccc(OP(C)(=O)O)cc1,inactive: -2.3%
18,Cc1c(NP(C)(=O)Oc2ccc(C(C)C)cc2)c(=O)n(-c2ccccc2)n1C (stereo not drawn),inactive: 4.2%
19,COc1ccccc1OP(C)(=O)Nc1ccc(C)c(C)c1 (stereo not drawn),inactive: -25.6%
20,Cc1nc2ccc3ccccc3c2o1.O=[N+]([O-])c1cc([N+](=O)[O-])c(O)c([N+](=O)[O-])c1,inactive: -3.4%
21,COc1ccc(OP(C)(=O)Nc2cccc(F)c2)cc1 (stereo not drawn),inactive: -30.5%
22,CP(=O)(NC(=O)Nc1ccccc1)Oc1ccccc1 (stereo not drawn),inactive: -8.5%
23,CP(=O)(Nc1ccccn1)Oc1ccc(Cl)cc1 (stereo not drawn),inactive: -9%
24,CP(=S)(Nn1cnnc1)Oc1ccccc1 (stereo not drawn),inactive: -18.8%
25,COc1ccccc1OP(C)(=O)Nc1c(C)cccc1C (stereo not drawn),inactive: -7.3%
26,Cc1nc2ccc3ccccc3c2s1.O=[N+]([O-])c1cc([N+](=O)[O-])c(O)c([N+](=O)[O-])c1,inactive: -0.4%
27,Cc1ccc(C)c(NP(C)(=O)Oc2ccccc2)c1 (stereo not drawn),inactive: 1.2%
28,Cc1cc(C)cc(OP(C)(=O)Nc2ccccn2)c1 (stereo not drawn),inactive: -10.5%
